CycPeptMPDB entries from one study

Source: CycPeptMPDB (Li et al. 2023), which took these values from Furukawa et al. 2016, doi:10.1021/acs.jmedchem.6b01246.

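Conditions beyond the assay type are not listed; see the original paper. The list need not hold all peptides of the study. Entries at the database's floor value (log10 P of -10) are not listed.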

PAMPA measures passive passage through an artificial lipid membrane. Values are log10 P with P in cm/s, so -5 is more permeable than -7.

| compound | PAMPA (log10 cm/s) |
|---|---|
| CCCCCN1CC(=O)N[C@@H](CC(C)C)C(=O)N[C@@H](CCCC)C(=O)N2CCC[C@@H]2C(=O)N(Cc2ccc3c(c2)OCO3)CC(=O)N[C@@H](Cc2ccccc2)C1=O | -5.24 |
| CCCCCN1CC(=O)N(C)[C@@H](CC(C)C)C(=O)N[C@@H](CCCC)C(=O)N2CCC[C@H]2C(=O)N(Cc2ccc3c(c2)OCO3)CC(=O)N[C@H](Cc2ccccc2)C1=O | -5.50 |
| CCCC[C@@H]1NC(=O)[C@@H](CC(C)C)NC(=O)CN(CC2CCOCC2)C(=O)[C@H](Cc2ccccc2)NC(=O)CN(Cc2ccc3c(c2)OCO3)C(=O)[C@@H]2CCCN2C1=O | -5.15 |
| CCCC[C@@H]1NC(=O)[C@H](CC(C)C)NC(=O)CN(CC2CCOCC2)C(=O)[C@H](C)NC(=O)CN(CC)C(=O)[C@H]2CCCN2C1=O | -7.62 |
| CCCCCN1CC(=O)N(C)[C@H](CC(C)C)C(=O)N[C@@H](CCCC)C(=O)N2CCC[C@H]2C(=O)N(Cc2ccc3c(c2)OCO3)CC(=O)N[C@H](C)C1=O | -5.33 |
| CCCC[C@@H]1NC(=O)[C@H](CC(C)C)N(C)C(=O)CN(CC2CCOCC2)C(=O)[C@H](Cc2ccccc2)NC(=O)CN(Cc2ccc3c(c2)OCO3)C(=O)[C@H]2CCCN2C1=O | -5.19 |
| CCCCCN1CC(=O)N(C)[C@H](CC(C)C)C(=O)N[C@@H](CCCC)C(=O)N2CCC[C@@H]2C(=O)N(CCCOC(C)C)CC(=O)N[C@@H](Cc2ccccc2)C1=O | -5.58 |
| CCCCCN1CC(=O)N(C)[C@H](CC(C)C)C(=O)N[C@@H](CCCC)C(=O)N2CCC[C@H]2C(=O)N(Cc2ccc3c(c2)OCO3)CC(=O)N[C@H](Cc2ccccc2)C1=O | -5.43 |
| CCCC[C@@H]1NC(=O)[C@H](CC(C)C)NC(=O)CN(CC2CCCCC2)C(=O)[C@@H](C)NC(=O)CN(CC)C(=O)[C@H]2CCCN2C1=O | -6.65 |
| CCCC[C@@H]1NC(=O)[C@@H](CC(C)C)N(C)C(=O)CN(CC2CCOCC2)C(=O)[C@@H](C)NC(=O)CN(CC)C(=O)[C@H]2CCCN2C1=O | -7.19 |
| CCCCCN1CC(=O)N[C@H](CC(C)C)C(=O)N[C@@H](CCCC)C(=O)N2CCC[C@H]2C(=O)N(Cc2ccc3c(c2)OCO3)CC(=O)N[C@H](C)C1=O | -5.68 |
| CCCC[C@@H]1NC(=O)[C@H](CC(C)C)NC(=O)CN(CC2CCOCC2)C(=O)[C@H](C)NC(=O)CN(CCCOC(C)C)C(=O)[C@H]2CCCN2C1=O | -7.00 |

Again, the 2 entries with the lowest PAMPA:

| compound | PAMPA (log10 cm/s) |
|---|---|
| CCCC[C@@H]1NC(=O)[C@H](CC(C)C)NC(=O)CN(CC2CCOCC2)C(=O)[C@H](C)NC(=O)CN(CC)C(=O)[C@H]2CCCN2C1=O | -7.62 |
| CCCC[C@@H]1NC(=O)[C@@H](CC(C)C)N(C)C(=O)CN(CC2CCOCC2)C(=O)[C@@H](C)NC(=O)CN(CC)C(=O)[C@H]2CCCN2C1=O | -7.19 |